Results on 26 compounds are retold here after PubChem BioAssay AID588850 (Sanford-Burnham Center for Chemical Genomics, 2011).

The entries are a selection whose mix differs from that of the whole data set. Some of these compounds have results that are not shown, active ones among them. Calls of active or inactive are those of the source.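 The calls were made as follows: active = at least 50% inhibition at 5 µM, scaled per plate between neutral and stimulator controls; inactive = the rest.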

This assay can be described thus: inhibitors of PAF-induced NF-kB signaling, primary screen, cell-based, GFP fluorescence, uHTS (AID 588850).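 Also: PAF is a Pseudomonas aeruginosa culture filtrate used as stimulus; plate controls were PAF-stimulated DMSO wells for no effect and unstimulated DMSO wells for full effect.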 The settings on record: KKLEB NF-kB-GFP reporter, GFP fluorescence overnight, at 5 µM, active compounds read high.
As usually defined, the inhibition is the drop in the measured response relative to a control, in per cent. With `COc1cc(C(=O)NCC2(N(C)C)CCCCC2)c([N+](=O)[O-])cc1OC`, the inhibition was inactive: 1.3%.
On to `CN(C)C1(CNC(=O)c2ccc(Br)cc2)CCCCC1`, for which the inhibition is inactive: -6.3%.
As for `O=C(NCC1(N2CCCCC2)CCCCC1)c1cccc(Cl)c1`, the inhibition was inactive: -12.6%.
In the case of `COc1ccc(Cl)cc1C(=O)NCC1(N(C)C)CCCCC1`, the inhibition is inactive: 4.9%.
In the case of `COc1cccc(C(=O)NCC2(N3CCCCC3)CCCCC2)c1`, the inhibition is inactive: -4.3%.
On to `O=C(OC1CN2CCC1CC2)C(CO)(c1ccccc1)c1ccccc1` (stereo unspecified), for which the inhibition is inactive: 5.3%.
Regarding `O=C(OCCN1CCCC1)C(O)(c1ccccc1)c1ccccc1`, the inhibition was inactive: 6.2%.
The same measure for `CC(C)Oc1ccc(C(=O)NCC2(N(C)C)CCCCC2)cc1`: inactive: -1%; for `CN(C)c1cccc(C(=O)NCC2(N(C)C)CCCCC2)c1`: inactive: -8.4%.
Regarding `C=C(C)C#CC(O)(C(=O)OC1CCN(C)CC1)c1ccccc1` (stereo unspecified), the inhibition was inactive: -4.6%.
For `COc1ccc(Br)c(C(=O)NCC2(N3CCCCC3)CCCCC2)c1`, the inhibition is inactive: -5.1%.
As for `CN1[C@@H]2CC[C@H]1CC(OC(=O)C(O)(c1ccccc1)c1ccccc1)C2` (stereo partly specified), the inhibition is inactive: -16.6%.
As for `O=C(NCC1(N2CCCCC2)CCCCC1)c1cc([N+](=O)[O-])ccc1Cl`, the inhibition was inactive: -1.1%.
Take `Cc1ccc(C(=O)NCC2(N3CCCCC3)CCCCC2)cc1`: the inhibition is inactive: 4.6%.
On to `COc1cc(SC)ccc1C(=O)NCC1(N(C)C)CCCCC1`, for which the inhibition is inactive: -14.8%.
Turning to `CCN(CC)CC(C)C(C)OC(=O)C(O)(c1ccccc1)c1ccccc1` (stereo unspecified), the inhibition was inactive: 11.6%.
In the case of `CC(C)N1C(=O)CC2(CCN(CCOC(=O)C(O)(c3ccccc3)c3ccccc3)CC2)C1=O` it was inactive: -7.4%; in that of `CN(C)c1ccc(C(=O)NCC2(N(C)C)CCCCC2)cc1`, inactive: 3.1%.
Consider `CN(C)C1CCCC1OC(=O)C(O)(c1ccccc1)c1ccccc1` (stereo unspecified), for which the inhibition is inactive: -6.5%.
As to `Cc1ccccc1C(=O)NCC1(N2CCCCC2)CCCCC1`, the inhibition was inactive: 10.6%.
On to `COc1ccc(C(=O)NCC2(N(C)C)CCCCC2)cc1`, for which the inhibition was inactive: -18.1%.
Take `O=C(NCC1(N2CCCCC2)CCCCC1)c1cccc(Br)c1`: the inhibition is inactive: 8.6%.
Turning to `CCN1CCCC(OC(=O)C2(O)c3ccccc3C=Cc3ccccc32)C1` (stereo unspecified), the inhibition is inactive: 4.6%.
Take `Cc1cc(C(=O)NCC2(N3CCCCC3)CCCCC2)ccc1[N+](=O)[O-]`: the inhibition is inactive: 0.1%.
For the compound `O=C(NCC1(N2CCCCC2)CCCCC1)c1cc(F)c(F)cc1Cl`, the inhibition is inactive: 6.7%.
Turning to `C=CCN1CCN(CCOC(=O)C(O)(c2ccccc2)c2ccccc2)CC1`, the inhibition is inactive: -10.7%.
